The values below come from patent US8658665B2, “3,6-disubstituted xanthylium salts and use thereof in treatment of tauopathies” (WisTa Laboratories Ltd., priority 2008, dated 2014).

SMILES strings stand for the structures.

In this assay the test system is fibroblast cells (3T6) expressing full-length tau (T40) and the 12 kD PHF-core tau fragment. As to the kind of experiment: Cell-based assay for establishing EC50 (inhibition of generation of the 12 kD tau fragment). As to conditions: concentration giving 50% inhibition of generation of the 12 kD fragment, 3T6 cells, mean ± SE, number of replications in parentheses.

Take `CCN(CC)c1ccc2cc3ccc(N(CC)CC)cc3[o+]c2c1.[Br-]` [Compound F, 3,6-Bis-diethylamino xanthylium bromide]: the EC50 – broadly, the concentration at which the effect is half-maximal – came out at 0.042 ± 0.03 µM.

As to `CCN(CC)c1ccc2cc3ccc(N(CC)CC)cc3[o+]c2c1.[Cl][Fe]([Cl])([Cl])[Cl]` [G, 3,6-bis-diethylamino xanthylium iron tetrachloride], the EC50 is 0.079 ± 0.024 µM.

With `CCN(CC)c1ccc2cc3ccc(=[N+](CC)CC)cc-3oc2c1` [I•HNO3, 3,6-Bis-diethylamino xanthylium nitrate.HNO3], the EC50 (Fibroblast) is 0.032 ± 0.007 µM.
